Source: patent US20260168983A1, “YaxAB NANOPORE, NANOPORE SYSTEM COMPRISING SAME AND APPLICATIONS THEREOF” (KOREA RESEARCH INSTITUTE OF BIOSCIENCE AND BIOTECHNOLOGY, priority 2022, published 2026)

How the values were obtained:
Bcl-xL protein, Q07817 [1] = molecular target: Bcl-xL protein, Q07817
Bcl-xL protein, Q07817 [2] = molecular target: Bcl-xL protein, Q07817; remark: listed apart in the source
Bcl-xL protein, Q07817 [3] = assay: YaxAB nanopore; Bcl-xL with a mix of four competing peptides at 1:15

Q: GQVGRQLAIIGDDINR (modifications not checked) [Bak-BH3 peptide (wild-type), Q16611 72-87] was tested. Which Open probability (%) of level L2 (Bcl-xL protein, Q07817 [1]) did it give?
A: Its Open probability (%) of level L2 is 58%.

Q: And the current noise I N of the complex (Bcl-xL protein, Q07817 [2])?
A: The current noise I N of the complex was 95.5 pA and 92.2 pA and 78.9 pA.

Q: What about the signal frequency of the Bcl-xL-peptide complex (Bcl-xL protein, Q07817 [3]) of the same binder?
A: The signal frequency of the Bcl-xL-peptide complex was 51%.

“And” between values parts separate entries of the source, which are not always exact repeats. Equal values may be shown once.
